Data on one molecule can be found in article PMC3551298 (Arteriosclerosis, thrombosis, and vascular biology, 2012).

Chains of the proteins cited; added tags and fusions are not shown. Residues count along the entry.
UniProt P26022, 18-381: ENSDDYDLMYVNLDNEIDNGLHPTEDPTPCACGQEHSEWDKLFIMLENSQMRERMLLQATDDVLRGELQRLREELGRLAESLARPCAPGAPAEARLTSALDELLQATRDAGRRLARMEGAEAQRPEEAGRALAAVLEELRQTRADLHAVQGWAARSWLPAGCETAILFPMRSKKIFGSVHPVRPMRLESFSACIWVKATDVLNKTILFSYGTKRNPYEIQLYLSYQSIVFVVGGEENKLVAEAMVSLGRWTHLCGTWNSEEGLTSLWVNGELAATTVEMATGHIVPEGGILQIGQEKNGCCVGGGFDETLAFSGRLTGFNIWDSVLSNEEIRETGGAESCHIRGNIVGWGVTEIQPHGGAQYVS

The term Kd denotes the concentration at which binding is half-saturated. In general, IC50 refers to the concentration needed to halve the response being measured. High values mean lower potency, low ones higher potency.

Assay [1] concerns the target long pentraxin 3 (PTX3), full length (human, UniProt P26022). Put plainly: SPR. Background: In SPR one partner is held on a chip, and binding of the other changes the refractive index at the surface.
Assay [2] addresses biotinylated PTX3 (bPTX3) (human, UniProt P26022, biotin (biotinylated; sites not stated)). Nature of the assay: ELISA. (ELISA stands for enzyme-linked immunosorbent assay.)

B1: full-length human TSG-6 (natural protein)
chain: WGFKDGIFHNSIWLERAAGVYHREARSGKYKLTYAEAKAVCEFEGGHLATYKQLEAARKIGFHVCAAGWMAKGRVGYPIVKPGPNCGFGKTGIIDYGIRLNRSERWDAYCYNPHAKECGGVFTDPKQIFKSPGFPNEYEDNQICYWHIRLKYGQRIHLSFLDFDLEDDPGCLADYVEIYDSYDDVHGFVGRYCGDELPDDIISTGNVMTLKFLSDASVTAGGFQIKYVAMDPVSKSSQGKNTSTTSTGNKNFLAGRFSHL
In turn, B1 came in with a dissociation constant (Kd) in assay [1] of 314 nM. The molecule also returned a half-maximal inhibitory concentration (IC50) in assay [2] of around 100 nM.
